{"source": "patent US20230382863A1", "about": "“MEK INHIBITORS AND USES THEREOF” (Ikena Oncology, Inc., priority 2022, published 2023)", "tested_on": "cancer cell lines", "assay": "In vitro MEK inhibitor drug combinations (Cell Titer Glo, Loewe synergy)", "type": "cell-based", "conditions": "combination with I-2; HCA7, HCT-116, SW620, SW48, CACO2, DLD-1, RKO, HT-29; 5 days", "experimental": "Cell viability was determined by Cell Titer Glo assay. […] A normalized Loewe sum of synergy score of >10 was considered synergistic, <10, but >−10 additive, and <−10 antagonistic.", "data": [{"substance": "Cetuximab: monoclonal antibody to EGFR (ERBITUX), tested in combination with I-2", "values": [{"measurement": "Loewe Synergy Score > 10", "value": "6/8 cell lines"}]}]}
